Experimental data as given in US20250145608A1, “KRAS DEGRADING COMPOUNDS COMPRISING ANNULATED 2-AMINO-3-CYANO THIOPHENES” (Boehringer Ingelheim Int'l GmbH Corp., priority 2021, published 2025).

The chains behind the UniProt entries cited, without tags or fusion partners. Residues count along the entry.
UniProt P01116, 1-188 isoform 2 G12D: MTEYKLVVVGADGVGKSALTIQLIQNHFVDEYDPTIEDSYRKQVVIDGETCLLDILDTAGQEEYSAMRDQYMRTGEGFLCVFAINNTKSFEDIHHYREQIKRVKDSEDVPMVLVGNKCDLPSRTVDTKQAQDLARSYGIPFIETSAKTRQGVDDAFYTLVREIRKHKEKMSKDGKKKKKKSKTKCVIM

Molecular target: KRAS(G12D) (Homo sapiens, UniProt P01116, G12D)
Experiment: HiBit degradation assay in GP5d-HiBit-KRAS(G12D) cells (18 h; DC50, Dmax)

Cc1ncsc1-c1ccc([C@@H](NC(=O)[C@@H]2C[C@@H](O)CN2C(=O)C(C(C)C)n2cc(OCCCCN3CCCN(c4nccc(-c5noc([C@@]6(C)CCCc7sc(N)c(C#N)c76)n5)n4)[C@@H](C)C3)nn2)C(=O)O)cc1 (some centres unmarked)
Dmax 18 h: 83 % Ctrl
DC50 (read-out: DC50 18 h): 739 nM
